The list shows a part of the results, in another mix than the full data. The source made the active and inactive calls.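 Rule for the calls: active = activation above the run cutoff, the mean activation of all test compounds plus 3 SD (cut at about 18% in these data); inactive = the rest.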

The chains behind the UniProt entries cited, without tags or fusion partners.
UniProt P08912, whole entry: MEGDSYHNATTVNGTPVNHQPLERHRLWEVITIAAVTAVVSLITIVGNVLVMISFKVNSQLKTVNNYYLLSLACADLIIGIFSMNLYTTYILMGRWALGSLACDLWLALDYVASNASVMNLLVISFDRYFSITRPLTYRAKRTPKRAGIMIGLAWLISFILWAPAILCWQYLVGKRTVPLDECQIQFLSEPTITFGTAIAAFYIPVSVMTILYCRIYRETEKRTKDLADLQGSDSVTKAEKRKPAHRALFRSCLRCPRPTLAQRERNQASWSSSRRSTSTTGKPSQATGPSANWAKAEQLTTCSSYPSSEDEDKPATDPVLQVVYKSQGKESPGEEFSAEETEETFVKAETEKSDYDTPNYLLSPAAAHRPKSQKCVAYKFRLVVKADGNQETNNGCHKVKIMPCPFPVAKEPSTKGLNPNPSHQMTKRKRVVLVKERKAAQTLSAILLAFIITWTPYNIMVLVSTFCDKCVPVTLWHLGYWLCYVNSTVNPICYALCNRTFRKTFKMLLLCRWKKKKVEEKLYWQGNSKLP

The test deals with Muscarinic acetylcholine receptor M5 (Homo sapiens) (UniProt P08912). The experiment in a line: human M5 muscarinic receptor positive allosteric modulators, primary screen, CHO-K1 cells, Fluo-8 calcium fluorescence (AID 624038). The conditions noted are these: CHO-K1 hM5, Fluo-8 calcium, ACh EC20 PAM; at 3 µM; active compounds read high; 0% = ACh EC20, 100% = ACh EC100.
As to `CCC(c1nnnn1C1CCCC1)N1CCC(n2c(=O)[nH]c3ccccc32)CC1` (stereo not drawn), the activation is inactive: -13.8%.

Turning to `COc1ccc(C(=O)NCC2(N3CCCCC3)CCCCC2)cc1`, the activation was inactive: 4.76%.

Take `CCCCn1nnnc1C(CC)N1CCC(n2c(=O)[nH]c3ccccc32)CC1` (stereo not drawn): the activation is inactive: -13.4%.

Consider `O=C(NCC1(N2CCCCC2)CCCCC1)c1cccs1`, for which the activation was inactive: -2.97%.

Regarding `CCCCn1nnnc1C(c1cccs1)N1CCC(n2c(=O)[nH]c3ccccc32)CC1` (stereo not drawn), the activation is inactive: -18.9%.

With `O=C(NCC1(N2CCCCC2)CCCCC1)c1ccc(=O)[nH]c1`, the activation is inactive: -6.04%.

As for `Cc1cccc(NC2(C#N)CCN(Cc3ccccc3)CC2)c1`, the activation is inactive: 1.68%.

For the compound `CSc1ccccc1C(=O)NCC1(N2CCCCC2)CCCCC1`, the activation is inactive: 3.32%.

Turning to `O=c1[nH]c2ccccc2n1C1CCN(C(c2ccccc2)c2nnnn2C2CCCCC2)CC1` (stereo not drawn), the activation was inactive: -3.95%.

For the compound `CCOC(=O)N1CCC(Nc2cccc(C)c2)CC1`, the activation is inactive: -4.44%.

On to `COc1cc(C(=O)NCC2(N(C)C)CCCCC2)ccc1OC(F)F`, for which the activation is inactive: -1.63%.

Regarding `O=c1[nH]c2ccccc2n1C1CCN(C(c2cccc3ccccc23)c2nnnn2C2CCCC2)CC1` (stereo not drawn), the activation is inactive: -0.28%.

For the compound `O=C1CCN(Cc2ccccc2)CC1`, the activation was inactive: -0.49%.

With `CC(C)(C)n1nnnc1C(c1ccccc1)N1CCC(n2c(=O)[nH]c3ccccc32)CC1` (stereo not drawn), the activation is inactive: -9%.

On to `CCOc1ccc(C)cc1CN(CCCl)CCCl`, for which the activation was inactive: -21.9%.

Regarding `CCOC(=O)N1CCC(Nc2ccc(F)cc2)CC1`, the activation is inactive: -5.56%.

With `COc1ccc(NC2CCN(CCc3ccccc3)CC2)c(OC)c1`, the activation is inactive: -2.86%.

In the case of `CCCCOc1ccc(C(=O)NCC2(N3CCOCC3)CCCCC2)cc1`, the activation was inactive: 1.68%.

With `CCCCn1nnnc1C(c1cc2ccccc2o1)N1CCC(n2c(=O)[nH]c3ccccc32)CC1` (stereo not drawn), the activation was inactive: -6.18%.

For the compound `O=P1(N(CCCl)CCCl)SCCCS1`, the activation is inactive: 11.5%.

As for `O=C(NCC1(N2CCCCC2)CCCCC1)c1ccc(F)cc1`, the activation was inactive: -4.42%.

Take `O=C(NCC1(N2CCCCC2)CCCCC1)c1cccc(C(F)(F)F)c1`: the activation is inactive: 2.96%.

As to `O=C(NCC1(N2CCOCC2)CCCCC1)c1cc(=O)[nH]c2ccccc12`, the activation was inactive: 0.44%.

For `COc1cc(C(=O)NCC2(N3CCCCC3)CCCCC2)ccc1OC(F)F`, the activation was inactive: -15.7%.

For the compound `COc1ccc(NC2CCN(C(=O)OC(C)(C)C)CC2)cc1`, the activation is inactive: -4.22%.

Turning to `CC(C)c1ccc(C(=O)NCC2(N3CCOCC3)CCCCC2)cc1`, the activation was inactive: 4.48%.

For the compound `CN1CCN(CCOC(=O)C(O)(c2ccccc2)c2ccccc2)CC1`, the activation is inactive: -20.2%.

In the case of `CCCCn1nnnc1C(c1cccc2ccccc12)N1CCC(n2c(=O)[nH]c3ccccc32)CC1` (stereo not drawn), the activation was inactive: -2.55%.

On to `O=C(NCC1(N2CCCCC2)CCCCC1)c1ccc(OC(F)F)cc1`, for which the activation was inactive: -3.13%.

On to `CC(C)(C)n1nnnc1C(c1ccccc1OC(F)(F)F)N1CCC(n2c(=O)[nH]c3ccccc32)CC1` (stereo not drawn), for which the activation was inactive: -0.79%.

As to `O=c1[nH]c2ccccc2n1C1CCN(C(c2ccccc2OC(F)(F)F)c2nnnn2C2CCCC2)CC1` (stereo not drawn), the activation was inactive: 0.18%.

Consider `N#CC1(Nc2ccccc2)CCN(CCc2ccccc2)CC1`, for which the activation was inactive: 1.63%.

With `CCN1CCC(Nc2ccc(Cl)cc2)CC1`, the activation is inactive: -1.63%.

On to `O=C(NCC1(N2CCCCC2)CCCCC1)c1cccc([N+](=O)[O-])c1`, for which the activation was inactive: 4.14%.

Consider `CSc1ccc(C(=O)NCC2(N3CCOCC3)CCCCC2)cc1`, for which the activation is inactive: -1.11%.

Regarding `CN1CCC(Nc2cccc(F)c2)CC1`, the activation was inactive: -2.53%.

Take `O=C(NCC1(N2CCCCC2)CCCCC1)c1cncc(Br)c1`: the activation is inactive: 2.95%.

Take `COc1ccc(C(c2nnnn2C2CCCC2)N2CCC(n3c(=O)[nH]c4ccccc43)CC2)cc1` (stereo not drawn): the activation was inactive: -15.6%.

As for `CCCOc1ccc(C(=O)NCC2(N(C)C)CCCCC2)cc1OC`, the activation was inactive: 6.8%.

Consider `Cc1ccc(C(=O)NCC2(N(C)C)CCCCC2)o1`, for which the activation was inactive: -3.26%.

Regarding `CCCCn1nnnc1C(c1ccccc1OC(F)(F)F)N1CCC(n2c(=O)[nH]c3ccccc32)CC1` (stereo not drawn), the activation was inactive: 1.66%.

In the case of `CC(C)c1ccc(NC2CCN(C(=O)OC(C)(C)C)CC2)cc1`, the activation is inactive: -0.61%.

As for `CN(C)c1cccc(C(=O)NCC2(N3CCCCC3)CCCCC2)c1`, the activation is inactive: -2.87%.

As for `COc1ccc(CN(CCCl)CCCl)cc1Cl`, the activation was inactive: 0.59%.

For the compound `CCC(c1nnnn1C(C)(C)C)N1CCC(n2c(=O)[nH]c3ccccc32)CC1` (stereo not drawn), the activation is inactive: -8.49%.

`O=C(NCC1(N2CCOCC2)CCCCC1)c1cc(F)c(F)cc1Cl`: the activation is inactive: 1.44%.

On to `COc1cc(OC)c(C(=O)NCC2(N(C)C)CCCCC2)cc1OC`, for which the activation was inactive: 3.23%.

With `CCCCn1nnnc1C(c1ccnc2ccccc12)N1CCC(n2c(=O)[nH]c3ccccc32)CC1` (stereo not drawn), the activation was inactive: -13%.
